Measurements published in US9133187B2, “Serine/threonine kinase inhibitors” (ARRAY BIOPHARMA INC., priority 2011, dated 2015).

Amino acid sequences for entries named in this document (tags omitted). Residues count along the entry.
UniProt P28482, 8-360: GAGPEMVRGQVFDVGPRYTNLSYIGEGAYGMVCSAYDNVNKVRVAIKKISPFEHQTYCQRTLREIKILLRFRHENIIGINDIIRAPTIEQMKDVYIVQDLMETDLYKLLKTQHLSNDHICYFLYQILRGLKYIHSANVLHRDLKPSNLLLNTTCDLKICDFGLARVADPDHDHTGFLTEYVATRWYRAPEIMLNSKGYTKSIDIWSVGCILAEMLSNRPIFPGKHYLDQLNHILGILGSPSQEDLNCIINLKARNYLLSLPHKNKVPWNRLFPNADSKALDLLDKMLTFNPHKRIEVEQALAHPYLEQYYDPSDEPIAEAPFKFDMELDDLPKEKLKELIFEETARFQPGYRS

Target: human ERK-2 (Mitogen Activated Kinase 1) (Homo sapiens (Human), UniProt P28482)
Experiment: ERK-2 Enzymatic Assay
Type: biochemical
Settings: 5 nM ERK-2, 25 μM ATP, Omnia peptide S/T17; read-out: ERK Inhibition IC50
Experimental: Compounds were tested in an enzymatic assay using human ERK-2 (Mitogen Activated Kinase 1), recombinantly expressed as an n-terminal 6-His fusion protein in E. coli and corresponding to aa 8-360. The substrate used was the fluorescent Omnia peptide S/T17 (Invitrogen of Carlsbad, Calif.; Cat. KNZ1171C). Test compounds were diluted in DMSO in 3-fold serial dilutions at 100× final concentrations. […] The assay was run at ambient temperature in a white 384-well polypropylene plate (Nunc, Inc of Naperville, Ill.; Cat. 267462) collecting data every 50 seconds for approximately 30 minutes on an Envision plate reader (PerkinElmer, Inc. of Waltham, Mass.); Excitation 340 nm/Emission 495 nm. The data collected from each well was fit to a straight line and the resulting rates were used to calculate percent of control. Percent of control was plotted against compound concentration and IC50 values were determined using a four-parameter fit.

Which IC50 does the source give for O=C(N[C@H](CO)c1ccc(F)c(Cl)c1)N1CCc2cnc(N[C@H](CO)Cc3ccccc3)nc2C1 [II-17, 2-((S)-1-Hydroxymethyl-2-phenyl-ethylamino)-5,8-dihydro-6H-pyrido[3,4-d]pyrimidine-7-carboxylic acid [(S)-1-(3-chloro-4-fluoro-phenyl)-2-hydroxy-ethyl]-amide] here?
The IC50 was 4.1 nM.
